US20160297828A1, “SPIROCYCLIC COMPOUNDS CONTAINING SPIRO[INDOLYL-3,1'-PYRROLO[3,4-C]PYRROLE] CORE AND SULPHUR-CONTAINING AMINO ACID RESIDUES” (priority 2013, published 2016)

Test system: rats with intracerebral hemorrhage
Test: Lethality of rats with intracerebral hemorrhage of average severity
Format: in vivo
Description: Neuroprotective effect of 3,2′-spiro-pyrrolo-2-oxindole derivative (SI-86 compound) was studied on IUD model of moderate severity modeled under propofol anesthesia (60 mg/kg intraperitoneally (ip)) by autoblood administration into the brain internal capsule (stereotactic coordinates of the projection: H=7.0 mm, L=3.0 mm, A=1.5 mm from bregma) ([…]) (Method for reproduction of intracerebral hemorrhage in rats/O. K. Yarosh, S. V. Kyrychenko, S. P. Halimonchyk [et al.]//Circulation and hemostasis.-2005.-No. 1.-P. 77-81). The chosen model allows to reproduce clinical pattern of […] and is adequate for clinical study of potential neuroprotective agents.
As comparators the following drugs were used: mexydol (“Mexydol” UC Pharmasoft, Russia), 100 mg/kg; citicoline (“Somazina” Ferrer International, SA, Spain), 250 mg/kg; aktovegin (“Aktovegin”, Nycomed, Austria), 16 mg/kg pyracetam (“Pyracetam” Darnitsa, Ukraine), 400 mg/kg. According to the latest clinical guidelines regarding the treatment of patients with CVA approved by the Ministry of Health of Ukraine (Order No. 602 dated 3 Aug. 2012), all these drugs are allowed to be included into schemes for intensive patients therapy with CVA as neuroprotective agents. They were used at recommended doses for preclinical studies (McGrow C. P. Experimental Cerebral Infarction Effects of Pentobarbital in Mongolian Gerbils/C. P. McGrow//Arch. Neurol.-1977.-Vol. 34, No. 6.-P. 334-336). Experimental therapy of acute cerebral ischemia with SI-86 compound and comparator started 1 hour after IUD once a day for 21 days. The SI-86 derivative was investigated in conventionally effective dose of 10 mg/kg […] (iv)-dose that according to the results of our previous study provides maximum antihypoxic activity of SI-86 compound. Reference drugs were injected intraperitoneally (ip). Rats of control pathology group were injected by autoblood and as therapy 0.9% NaCI solution was administered calculated for 2 ml/kg […].
Pseudo-operated rats were exposed to all interventions (anesthesia, craniotomy) excluding autoblood administration that leveled traumatic impact of experimental conditions.
Evaluation of the ability of animals to learn and memorize of aversive stimulus was examined in the test of conditioned response of passive avoidance (CRPA). The technique is based on innate rat instinct to limited shadowy space. The study in rats was conducted in two-compartment unit consisted of two sections—light and dark. An animal was arranged into light compartment, fixing latency time for entering into the dark compartment, wherein rat received current irritation and ran in the light compartment. CRPA retention was tested every other day under latency time change of rat entering into the dark compartment. Also the number of animals was noted not fully entered the dark chamber. Cerebroprotective efficiency criteria of studied compounds were also animal death term (days) and their mortality rate (in %).
Quantitative data were processed using statistical StatPlus 2009 processing. The statistical significance of differences was assessed by Fisher's angular transformation (lethality outcome), also parametric t Student criterion were used in case of normal distribution of variation series, nonparametric W White criterion—in its absence.

[1] = 12 h, SI-86 10 mg/kg iv, mexydol 100, citocoline 250, actovegin 16, pyracetam 400 mg/kg

In the case of `C[N+](C)(C)CCOP(=O)(O)OP(=O)([O-])OC[C@H]1O[C@@H](n2ccc(N)nc2=O)[C@H](O)[C@@H]1O` [citocoline], the “Lethality, %” value [1] is reported as 0/0%*^#, the “Lethality, abs.” value [1] is reported as 0/0%*^# and the “Lethality, %” value (24 h, same doses) is reported as 0/0%*^#. The “Lethality, abs.” value (24 h, same doses) was 0/0%*^#, the “Lethality, %” value (24 h, same doses, listed as citicoline) was 0% and the cerebroprotective protection (24 h observation, SI-86 10, mexydol 100, citicoline 250 mg/kg) was 100%. The “Lethality, %” value (48 h, same doses) was 8.5%, the “Lethality, abs.” value (48 h, same doses) was 4 and the “Lethality, %” value (72 h, same doses) was 12.8%. For the same molecule, the “Lethality, abs.” value (72 h, same doses) was 6, the “Lethality, %” value (96 h, same doses) was 14.9% and the “Lethality, abs.” value (96 h, same doses) was 7. The “reduction of mortality in rats at the end of the observation period relative to control” value (within 4 days of therapy, same doses) was 15.1%.

Marks after values point to notes of the source that are not given here.
